Experiment: Murine toxicity (maximum tolerated dose)
Details: IP, A431 xenograft mice; tested form: bromide

Cn1c(C[N+](C)(C)C/C=C/C(=O)Nc2ccc3ncnc(Nc4cccc(Br)c4)c3c2)ccc1[N+](=O)[O-].[Br-] [Compound 19, (2E)-4-{[4-(3-bromoanilino)-6-quinazolinyl]amino}-N,N-dimethyl-N-[(1-methyl-5-nitro-1H-pyrrol-2-yl)methyl]-4-oxo-2-buten-1-ammonium bromide]
q4dx3 MTD: 75 μmol/kg/dose
